# Ab-14 light chain CDR variants: yeast mating affinities

Values reported by Li et al. 2023, doi:10.1038/s41467-023-39022-2 (FLAb copy).

Target: peptide PDVDLGDISGINAS, taken from heptad repeat 2 (HR2) of SARS-CoV-2 spike.

The variants keep the heavy chain, the linker and the frameworks of Ab-14 (scFv order VH, a 15-residue (Gly4Ser)3 linker, VL).
VH: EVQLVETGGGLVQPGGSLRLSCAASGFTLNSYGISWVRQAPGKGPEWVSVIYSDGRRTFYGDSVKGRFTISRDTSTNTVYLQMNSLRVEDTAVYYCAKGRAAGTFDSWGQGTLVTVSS
VL: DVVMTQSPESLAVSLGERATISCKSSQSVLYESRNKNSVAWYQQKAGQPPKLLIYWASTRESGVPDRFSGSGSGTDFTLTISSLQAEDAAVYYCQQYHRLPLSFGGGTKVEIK

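The starting antibody came from a phage panning campaign against this peptide. This is the validation round: designs drawn from the data on random variants, tested in the same kind of assay. Group labels follow the data file (Ctrl: baseline library sampled from a position-specific scoring matrix, with some repeated check sequences; Rand: our label for a block that the file lists under HC and that is probably the random mutants of the ten best first-round binders; En: ensemble of fine-tuned language models; GP: Gaussian process model; HC: hill climbing; Gen: genetic algorithm; Gibbs: Gibbs sampling; a sequence that several methods proposed may carry one label only). AlphaSeq pools MATa yeast showing the antibodies with MATalpha yeast showing the peptide. Pairs that bind mate more often; barcode pairs of the diploids are counted by sequencing. Scores were corrected for input abundance and mapped to Kd with protein pairs of known affinity run in the same pool. Mating was done six times.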

Each variant is given by its three light chain CDRs, as the data file delimits them; those of the parent are KSSQSVLYESRNKNSVA, WASTRES, QQYHRLPLS. Kd is apparent (estimated from mating counts) and averaged on the log scale over replicates with a signal. Smaller is tighter. "not detected" means that the variant was in the library but no mating with the target was seen in any replicate; the authors take this as a sign of poor binding, and no number exists. A sequence that the file lists under several names has all its replicates pooled. In the paper, a design with two or fewer of six values counts as a poor binder. Values of this round are not directly comparable with the first-round values of the same sequences. The parent sequence was in this pool as ten entries: three were never detected, three once, and four in most replicates, with averages from 2.2 nM to 240 nM. Empty control strains, which show no peptide, gave a signal in 4% of pairings with all light chain designs; the median was 430 nM and 95% of these signals were weaker than 38 nM. No background was subtracted.

CDR-L1,CDR-L2,CDR-L3,group,apparent Kd,replicates with signal
KSSQSVLYESRNKNSVA,AASTRES,QQYFRLPLS,Ctrl,1.2 nM,6 of 6
MVNGIMDHLSKNSNNVA,ETTERNS,QQYDRLPLS,En_Gen,1.4 nM,6 of 6
RIQEQMQKPDNIGQNVA,ENQTVID,QQYAHLPLS,En_Gibbs,120 nM,1 of 6
KMSQSVLYESRDKNSVA,NASTRES,QWYHRLPLS,GP_HC,160 nM,6 of 6
KLQQQWLYESRNKNSVA,QASTREE,QQYHRLPLS,GP_HC,2.2 nM,6 of 6
MLSDLVLYGVRNTNSVA,DNSTRGS,QQYDRLPLS,En_HC,79 nM,6 of 6
SLHMMPPVGYALDENVA,NASQLFS,QQYFRLPLT,En_Gibbs,not detected,0 of 6
KISQMVKVGATHNNSIA,EEVTRAN,QQYHRLPLA,En_Gen,200 nM,4 of 6
KLSQSMEYESRNKNSVA,HASTREE,QQYHRLPLM,GP_Gibbs,580 pM,6 of 6
KLSQSTLYESRNKNSVA,NASQRLS,QQYHRLPLS,GP_Gen,3.7 nM,6 of 6
KSSQSVMNESRNKNSVA,DASTRES,QQYHRLPLS,GP_HC,1.7 nM,6 of 6
KMPQSVPYESRNKNSVA,NASTRES,QQYHRLPLS,GP_Gen,1.4 nM,6 of 6
TLGGAMLTQMHNKNSVA,DLTTRLN,QQYHRLPLS,En_Gen,1.1 nM,6 of 6
KSSQSQDYGDRNSNSVA,NASQREH,QQYHRLPLS,GP_Gibbs,1.0 nM,6 of 6
KLQQSVLYESRNKNSVA,EASTREV,QQYHRLPLS,GP_Gen,440 pM,6 of 6
IVSQLMLWGLHAKNSIA,EATTRLN,QQYDRLPLF,En_Gen,38 nM,1 of 6
KIEISNSWHLRGTSAVA,QASTRAA,QQYQRLPLL,En_Gibbs,8.0 nM,6 of 6
KSWMSVLYEERNKNSVA,WASTRES,QQYHRLHNS,Ctrl,not detected,0 of 6
KISQMAKVGATHSNSIA,EEVTRAK,QQYHRLPLA,En_Gen,5.4 nM,6 of 6
HVAMLLGQQHGKQANVA,EADELMT,QQYYHLPLA,En_Gibbs,not detected,0 of 6
MISQLYNMGQFAINSVA,QASQRNE,QQYDRLPLM,En_Gen,36 nM,6 of 6
HLSANMWMESSQWDAVA,QGDIAMN,QDYSRLPLS,En_Gibbs,98 nM,5 of 6
KISQMYRYEQQNSSSIA,EANTREE,QSYHRLPLS,En_HC,46 nM,6 of 6
YSMQSVLYECRNKNSVA,NASTRES,QQYHREPLS,Ctrl,2.1 µM,1 of 6
RLRELNFYSGNARNNIA,DAHIHEV,QQYSWLPLF,En_Gibbs,21 nM,6 of 6
KSSQSVLYESRNKNSVA,WASHRES,PQYHRLPLS,Ctrl,not detected,0 of 6
KDDQSVLYESMNKNSVA,WASTRES,AQYHRLPLS,Ctrl,not detected,0 of 6
KVSQSHLYESRNKNSVA,DASTRES,QQYHRLPLS,GP_Gen,570 pM,6 of 6
KSLQSVLYESRNKNSVA,WASTRES,QQYHRLPIS,Ctrl,12 nM,1 of 6
KSSQVNLYESRNKNSVA,GASTRES,QQYHRLPLS,GP_HC,1.0 nM,6 of 6
MMSQVTGQGTRHRNNVA,QTSMREV,QQYDRLPLI,En_Gen,20 nM,6 of 6
HVSMLTLGGLKERNSVA,QMTTREN,QQYDRLPLA,En_Gen,10 nM,6 of 6
HISDMLGGDRKIAHNIA,NTGVTSR,QQYSRLPLI,En_Gibbs,2.2 nM,6 of 6
KLSQSVLGESRNKNSVA,EASTRES,QQYHRLPLS,GP_Gen,6.5 nM,6 of 6
KLSQSVMYESRMKNSVA,NASTRES,QQYHRLPLS,GP_Gen,450 pM,6 of 6
KQSQRVLYESRNKNSVA,DASTRES,QQYHRVPLS,Rand,2.1 nM,6 of 6
KFSGSQLYESRNSNSVA,HGSTRES,QDYHRLPLS,GP_Gibbs,4.9 nM,6 of 6
MLSDSVKMESRNTNSVA,DNSTRGS,QQYDRLPLS,En_HC,200 nM,2 of 6
KSSQSVGYESRNKNSVA,WASTRES,QQYYRLPLS,Ctrl,not detected,0 of 6
QLSMITGHVSMTKNNVA,EMETREN,QQYDRLPLS,En_Gen,900 pM,6 of 6
KLSQSTLYESRNKNSVA,WASTRLS,QQYHRLPLS,GP_HC,6.0 nM,6 of 6
MISQSFLIGMKAKNSIA,QTSTREE,QQYDRLPLI,En_HC,1.9 nM,6 of 6
MLSGVLHMLGAKKNSIA,DLVNRAN,QQYHRLPLM,En_Gen,69 nM,4 of 6
SITVIDNPGSQLHNNIA,QGSCKAE,QQYIRLPLI,En_Gibbs,4.1 nM,6 of 6
MFSQSVMTGSFMRNSVA,QTTTREN,QQYDRLPLM,En_HC,10 nM,6 of 6
HMNHEFLGYSNYEQAIA,HESQRLY,QQYSMLPLS,En_Gibbs,12 nM,6 of 6
KSSQSVLYESGNKNSVA,EASTRES,QQYHRLPLS,GP_Gen,1.8 nM,6 of 6
RLLDWAYNQTAMDSNIA,DQALEMD,QQYSHLPLT,En_Gibbs,440 nM,2 of 6
NVGQIMDGETRNRNNVA,HQSTRED,QHYHRLPLS,En_HC,960 pM,6 of 6
KSSISKLYESRNKNSVA,EASTREQ,QQYHRLPLS,GP_HC,1.6 nM,6 of 6
KSDQSVLYESRNKNSVA,WASTRES,QQYHRLPLS,Ctrl,not detected,0 of 6
KLPQSVEYESRNKNSVA,NASQRES,QQYHRLPLS,GP_Gen,580 pM,6 of 6
KSSQSVLYESRNKNSVA,WASTRES,QYYHRWPLS,Ctrl,not detected,0 of 6
KISQSVLYELRNKNSVA,WASTRES,QQYHRLPLS,Ctrl,56 nM,6 of 6
KLSMSYRYESENKNSIA,ELVTRVS,QQYHRLPLS,En_HC,9.4 nM,6 of 6
KLRQSTLYESRNQNSVA,EASTRES,QQYHRLPLS,GP_HC,1.6 nM,6 of 6
KLVQFMNRGTHHTSNIA,DAVNRLD,QQYARLPLA,En_Gen,1.5 nM,6 of 6
KSSQSVLYESQNKNSVA,WASTRES,QQYHRLPVS,Ctrl,not detected,0 of 6
KITATMRFEQKQKNNIA,EVTTRSK,QQYYRLPLA,En_Gen,11 nM,6 of 6
HIDILNRGETLKKDDIA,NADHREQ,QQYFHLPLS,En_Gibbs,1.3 nM,6 of 6
KMSQSQLYESQNKNSVA,WASTREA,QQYHRLPLS,Ctrl,100 nM,5 of 6
KQSQSVDYESRNKNAVA,DASTRES,QMYHWLPLS,GP_HC,1.3 nM,6 of 6
KVSQSFLYESRNKNNVA,GASTRES,QQYHRLTLS,GP_HC,86 nM,2 of 6
SLMQSVLYESRNKNSVA,HASQRED,QQYHRLPLS,GP_HC,540 pM,6 of 6
KMSQSVLIESRNKNSLA,HASTRVS,VWYFRLPLS,Ctrl,20 nM,6 of 6
QMTGQLFEQGNRSGPIA,HESMRET,QQYAQLPLT,En_Gibbs,21 nM,6 of 6
NLSDGEMYENATRSHIA,DTKMRDF,QQYNRLPLT,En_Gibbs,22 nM,6 of 6
RISITSDYYMENRSSIA,EMTVKEM,QQYQKLPLA,En_Gibbs,80 nM,3 of 6
HLSQSVLYESRNKNSVA,NASTREK,QQYHRLPLS,GP_Gen,540 pM,6 of 6
KIYGMQGMLTRQANSIA,DNTTRGN,QQYHRLPLS,En_Gen,130 nM,6 of 6
MISQVMNTLTRQGNNVA,DLQNREN,QQYFRLPLS,En_Gen,68 nM,4 of 6
KISISYLGESRNKNSVA,EASTRES,QQYHRLPLS,GP_HC,1.6 nM,6 of 6
KSGPGVLYESRNKNHVA,GASTRES,QQYHRLPLS,GP_HC,3.3 nM,6 of 6
KLSSHEQHGTARNSAMA,NAQVSTQ,QQYSHLPLS,En_Gibbs,14 nM,6 of 6
KSSQSELYESRNKNSVA,NASTRES,QQYHRLPLS,Ctrl+GP_Gen,2.0 nM,12 of 12
HMSMLTLGGQRHRNAVA,QMTTREN,QQYDRLPLT,En_Gen,25 nM,6 of 6
SLMQVGGYESNAHNSIA,DLRTRES,QQYHRLPLS,En_HC,6.8 nM,3 of 6
KSSQSVLGESENKNSVA,WASTRES,QQYHRLPLS,Ctrl,10 nM,6 of 6
TISQMTSLFSQSINNVA,EVSMRES,QQYDRLPLI,En_Gen,4.6 nM,6 of 6
KVSQGIFDGKRNSHSIA,EVSELCT,QQYSRLPLE,En_Gibbs,2.9 nM,6 of 6

For reference, 10 entries of the list once more:

| CDR-L1 | CDR-L2 | CDR-L3 | group | apparent Kd | replicates with signal |
|---|---|---|---|---|---|
| KQSQSVDYESRNKNAVA | DASTRES | QMYHWLPLS | GP_HC | 1.3 nM | 6 of 6 |
| RLRELNFYSGNARNNIA | DAHIHEV | QQYSWLPLF | En_Gibbs | 21 nM | 6 of 6 |
| KSGPGVLYESRNKNHVA | GASTRES | QQYHRLPLS | GP_HC | 3.3 nM | 6 of 6 |
| KITATMRFEQKQKNNIA | EVTTRSK | QQYYRLPLA | En_Gen | 11 nM | 6 of 6 |
| MFSQSVMTGSFMRNSVA | QTTTREN | QQYDRLPLM | En_HC | 10 nM | 6 of 6 |
| MLSDSVKMESRNTNSVA | DNSTRGS | QQYDRLPLS | En_HC | 200 nM | 2 of 6 |
| RIQEQMQKPDNIGQNVA | ENQTVID | QQYAHLPLS | En_Gibbs | 120 nM | 1 of 6 |
| KLPQSVEYESRNKNSVA | NASQRES | QQYHRLPLS | GP_Gen | 580 pM | 6 of 6 |
| NVGQIMDGETRNRNNVA | HQSTRED | QHYHRLPLS | En_HC | 960 pM | 6 of 6 |
| KSSISKLYESRNKNSVA | EASTREQ | QQYHRLPLS | GP_HC | 1.6 nM | 6 of 6 |